The record followed here is publication PMC10803289, “Transport and inhibition mechanism of the human SGLT2–MAP17 glucose transporter” (Nature Structural & Molecular Biology, 2023).

For the assay, the target named is T1, wild-type hSGLT2 (membrane fraction of hSGLT2 and MAP17 expressing cells) (Homo sapiens, UniProt P31639).
T1 construct: expressed in transfected cells; host or cells: Expi293 cells, crude membrane fraction
T1 sequence (P31639 1-672): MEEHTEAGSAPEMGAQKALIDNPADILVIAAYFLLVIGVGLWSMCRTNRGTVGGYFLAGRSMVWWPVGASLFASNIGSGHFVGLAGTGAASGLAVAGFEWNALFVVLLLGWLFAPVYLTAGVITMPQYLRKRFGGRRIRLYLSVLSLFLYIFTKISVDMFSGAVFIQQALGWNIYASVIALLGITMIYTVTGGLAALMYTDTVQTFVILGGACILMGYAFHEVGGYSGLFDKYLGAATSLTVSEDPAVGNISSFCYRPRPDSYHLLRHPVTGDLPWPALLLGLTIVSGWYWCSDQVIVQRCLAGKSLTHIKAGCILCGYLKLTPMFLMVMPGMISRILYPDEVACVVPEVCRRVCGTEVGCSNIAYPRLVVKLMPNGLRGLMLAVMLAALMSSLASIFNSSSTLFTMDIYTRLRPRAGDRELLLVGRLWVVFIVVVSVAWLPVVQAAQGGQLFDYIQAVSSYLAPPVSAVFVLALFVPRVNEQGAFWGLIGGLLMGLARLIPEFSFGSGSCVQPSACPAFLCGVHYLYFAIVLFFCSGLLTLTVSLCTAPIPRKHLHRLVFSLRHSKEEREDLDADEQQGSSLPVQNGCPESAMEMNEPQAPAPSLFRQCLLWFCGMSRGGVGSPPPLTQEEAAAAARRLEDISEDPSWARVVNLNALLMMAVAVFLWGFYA
T1 sequence (Q13113 1-114 partner): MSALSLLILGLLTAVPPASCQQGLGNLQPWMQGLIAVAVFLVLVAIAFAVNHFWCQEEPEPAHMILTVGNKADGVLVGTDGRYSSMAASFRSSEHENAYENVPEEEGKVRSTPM
Nature of the assay: SGLT2 inhibitor-binding assay via affinity selection–mass spectrometry, crude membrane, WT. Conditions: for Binding Mean: Eadie–Hofstee. The protocol:
To examine the inhibition of binding to the crude membrane, mammalian Expi293 cells were co-transfected with the hMAP17 and hSGLT2 plasmids, as described. The cells were collected and disrupted by sonication in a hypotonic buffer (50 mM HEPES–NaOH (pH 7.5), 10 mM KCl and protease inhibitor cocktail) or Na^+-free hypotonic buffer (50 mM Tris–HCl (pH 7.5), 10 mM KCl and protease inhibitor cocktail). The cell debris were removed by centrifugation (2,000g, 5 min, 4 °C). The membrane fraction was collected by ultracentrifugation (112,000g, 30 min, 4 °C) and stored at −80 °C before use. The crude membrane (250 μg per sample) was incubated with SGLT2 inhibitor in an assay buffer (100 mM NaCl and 10 mM HEPES/Tris, pH 7.4) or Na^+-free assay buffer (100 mM choline chloride and 10 mM HEPES/Tris, pH 7.4) at room temperature for 2 h. Reactions were terminated by filtration through a GF/C filter plate (Corning) presoaked in assay buffer containing 0.1% bovine serum albumin. The sample in the filter plate was washed three times with the assay buffer and eluted with acetonitrile: water (80:20, v/v). The extract solution from the filter plate was diluted with water containing candesartan as an internal standard, and the SGLT2 inhibitor concentration was quantified via LC–MS/MS.
Nonspecific binding was measured using the crude membrane of nontransfected Expi293 cells. Specific binding was calculated by subtracting nonspecific binding from the binding of hSGLT2-expressing cells. Specific binding was normalized to hSGLT2 protein expression levels, measured via FSEC. The equilibrium dissociation constant (Kd) and maximum number of binding sites (Bmax) were calculated via nonlinear regression in GraphPad Prism 8.4.3. The specific binding of the hSGLT2 mutants was normalized to the Bmax of WT hSGLT2.
The concentrations of the extract solution from the filter plate and of the cell lysate were quantified using a tandem mass spectrometry QTRAP6500 System (SCIEX) coupled with an ACQUITY UPLC system (Waters) using the internal standard method. Mobile phases A and B used 10 mM of ammonium bicarbonate and acetonitrile, respectively.

Each structure is given as a SMILES string. Where “and” joins values, the source holds several entries; their conditions need not be identical. Equal entries are not always repeated.

Turning to `O=C(CCc1ccc(O)cc1)c1c(O)cc(O)cc1O[C@@H]1O[C@H](CO)[C@@H](O)[C@H](O)[C@H]1O` [Phlorizin], the “Binding (% of hSGLT2)” value (100 nM phlorizin, hSGLT2) is 98.3721 % of hSGLT2 and 101.86 % of hSGLT2 and 99.7674 % of hSGLT2. Further, the “Binding Mean” value runs as follows: (WT, phlorizin 25 nM (inferred from ratio, not given)) 1.1296; (WT, phlorizin 50 nM (inferred)) 1.8248; (WT, phlorizin 100 nM (inferred)) 2.4455; (WT, phlorizin 200 nM (inferred)) 3.2679; (WT, phlorizin 300 nM (inferred)) 3.8001; (WT, phlorizin 500 nM (inferred)) 6.2828. For the same molecule, the “Binding Mean” value is, setting by setting: (WT, phlorizin 1000 nM (inferred)) 9.3101; (WT, phlorizin 3000 nM (inferred)) 21.0409; (WT, phlorizin 5000 nM (inferred)) 30.2579. Also, where the note is “hSGLT2-expressing membrane, two binding sites (high- and low-affinity)”, the “binding kinetics (in words)” value is listed as “biphasic kinetics”. Besides, for the setting “phlorizin at up to 5,000 nM”, the “saturation of binding to the hSGLT2-expressing membrane” value is “did not saturate”. For the setting “phlorizin, high-affinity site, WT, mean ± SEM n=3”, this molecule had a Bmax1 of 0.356 ± 0.069 pmol/mg-protein. The molecule further came in with a Bmax2 (phlorizin, low-affinity site, WT, mean ± SEM n=3) of 16.8 ± 7.4 pmol/mg-protein.
